Data from patent US20140288000A1 (University of California, published 2014).

Target: human plasmin (human) (UniProt P00747)
Test: cell-based or functional assay

aprotinin (from UniProt P00974 36-93)
IC50 (nM), inhibition of plasmin activity on chromogenic substrate S2251: 0.48 nM and 0.57 nM

Values joined by “and” are separate entries in the source; they are usually repeats but may differ in a detail not shown here. Equal entries are not always repeated.
